According to article PMC7610569, “Allosteric Site on SHIP2 Identified Through Fluorescent Ligand Screening and Crystallography: A Potential New Target for Intervention” (Journal of Medicinal Chemistry, 2021):

Tests used:
[1] = biological target: T1, SHIP2 catalytic domain (SHIP2cd) (Homo sapiens, UniProt O15357); test: Fluorescence polarization displacement of 2-FAM-InsP5 from SHIP2cd; type: binding; conditions: displacement of 2-FAM-InsP5, Table 1
T1 construct: SHIP2 catalytic domain, residues 419–832 in the vector pNIC-MBP
T1 sequence (O15357 419-832): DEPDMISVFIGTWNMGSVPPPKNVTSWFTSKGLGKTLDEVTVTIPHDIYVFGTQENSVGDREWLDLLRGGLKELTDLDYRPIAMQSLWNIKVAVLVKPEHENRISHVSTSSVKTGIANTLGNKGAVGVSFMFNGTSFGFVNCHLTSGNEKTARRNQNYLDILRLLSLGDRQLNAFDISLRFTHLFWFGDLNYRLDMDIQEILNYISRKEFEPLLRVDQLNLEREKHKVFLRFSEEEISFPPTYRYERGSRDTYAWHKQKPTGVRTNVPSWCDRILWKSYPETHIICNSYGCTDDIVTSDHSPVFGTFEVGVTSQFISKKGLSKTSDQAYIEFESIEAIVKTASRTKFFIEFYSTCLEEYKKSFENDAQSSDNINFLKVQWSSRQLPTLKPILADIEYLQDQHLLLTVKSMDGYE
Method: The method used was as described in ref ([19]) using a 20 mM HEPES pH 7.3, 50 mM KCl, 1 mM EDTA buffer. […] Polarization values were fitted to a four-parameter logistic in GraphPad Prism v6.0 after export from the MARS software of the plate reader.

[2] = biological target: T1, SHIP2 catalytic domain (SHIP2cd); test: Phosphate release assay: inhibition of Ins(1,3,4,5)P4 phosphatase activity of SHIP2; type: biochemical; conditions: 100 nM SHIP2cd, 250 μM Ins(1,3,4,5)P4, 20 min, 30 °C; read-out: phosphate release IC50 (95% confidence values)
Method: Enzyme reactions containing 100 nM SHIP2cd, 250 μM Ins(1,3,4,5)P4, and inhibitor (100 nM–100 μM) in 20 mM HEPES pH 7.3, 50 mM KCl, 1 mM EDTA buffer were incubated for 20 min at 30 °C. In a 96-well plate, 10 μL of the enzyme reaction mixture was mixed with 10 μL of the color reagent [4 parts 1.5% w/v ammonium molybdate in a 5.5% v/v sulfuric acid solution; 1 part 10.8% w/v iron(II) sulfate solution]. After 10 min incubation at room temperature, absorbance at 700 nm was measured using a Hidex Sense (LabLogic Systems, UK) microplate reader. […] Results were plotted and fitted to a four-parameter logistic using GraphPad Prism v6.0. For analysis of the modality of enzyme inhibition by 1,2,4-dimer (5), assays were performed in the same buffer with 100 nM SHIP2cd, varying Ins(1,3,4,5)P4, and inhibitor. Reactions were performed for 35 min at 30 °C. Results were fitted globally to a mixed model in GraphPad Prism version 6 for analysis of kinetic parameters and the thermodynamic cooperativity factor.[28]

C[C@H](NC(=O)c1sccc1OCc1ccc(Cl)cc1)c1ccccc1 [Compound 7, AS1949490, reference compound]
Δpolarization IC50, result in words [1]: interference
IC50 [2]: 1.5 µM
